Laboratory results: patent US20050164951A1, “Inhibitors for the soluble epoxide hydrolase” (The Regents of the University of California, priority 2003, published 2005)

Assay: Pharmacokinetics after oral gavage in mice
Details: FIG. 10; 5 mg/kg oral 800 versus 687, mice

CCCCOC(=O)CCCCCCCCCCCNC(=O)NC12CC3CC(CC(C3)C1)C2 [Compound 800, 1-(1-Adamantyl)-3-(11-butoxycarbonylundecyl)urea]
half-life: longer half-life
